## Reported vapor pressure values for industrial, environmental and drug-like chemicals

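The OPERA project collected these measurements from public sources as training and test data for property models. One number stands for a compound and property, with no spread given. Conditions of the individual experiments are not part of the data. Where a salt, mixture or single isomer is drawn, the source does not say that exactly this form was tested. Some entries may be limits or estimates that an upstream database listed as plain numbers.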

Vapor pressures (log10 mmHg) refer to near room temperature, 15 to 30 °C; higher is more volatile.
"–" marks a cell with nothing listed here.

SMILES | name | log vapor pressure (log10 mmHg)
Clc1cc(Cl)cc(-c2c(Cl)cc(Cl)cc2Cl)c1 | 2,3',4,5',6-Pentachlorobiphenyl | -4.554
CC(C)=CCCC(C)CC=O (stereo unspecified) | Citronellal | -0.815
CCCCC(CC)C(=O)OCC (stereo unspecified) | Hexanoic acid, 2-ethyl-, ethyl ester | -0.133
CCC(Oc1ccc(F)c(C(F)(F)F)c1)C(=O)NCc1ccccc1 (stereo unspecified) | Beflubutamid | -7.084
CCCCCCCC(=O)OCCOc1ccccc1 | Phenoxyethyl caprylate | -4.535
CC[C@@]12CC[C@H]3C4=C(CC[C@@H]3[C@H]1CCC2=O)CC(OC)=CC4 (racemic) | – | -7.05
COC(OC)C(C)(C)CC=C(C)C | 6,6-Dimethoxy-2,5,5-trimethylhex-2-ene | -0.777
CCOc1cc(COC)ccc1O | Phenol, 2-ethoxy-4-(methoxymethyl)- | -4
CC(C)(C=O)CN1CCOCC1 | 2,2-Dimethyl-3-(morpholin-4-yl)propanal | -0.347
CCOC(=O)[C@@]12C[C@H]1C=CCCCCN(C)C(=O)[C@@H]1C[C@H](Oc3cc(-c4nc(C(C)C)cs4)nc4c(C)c(OC)ccc34)C[C@H]1C(=O)N2 | – | -9.837
COc1ccc(CCC#N)cc1OC | 3-(3,4-Dimethoxyphenyl)propanenitrile | -5.046
Cc1ccc(-c2ccccc2C#N)cc1 | 4'-Methylbiphenyl-2-carbonitrile | -3.979
CCCCC(CC)COC(=O)CC(C)CC(C)(C)C (stereo unspecified) | 3,5,5-Trimethylhexanoic acid, 2-ethylhexyl ester | -3.179
C=CCCC(=O)C1=CCCC(C)(C)C1 | 1-(5,5-Dimethyl-1-cyclohexen-1-yl)pent-4-en-1-one | -1.998
C[C@@H]1CCN(c2nc3cc(Cl)ccc3o2)CCN1.Cl | – | -7.188
O=C=Nc1ccccc1Cc1ccccc1N=C=O | 2,2'-Methylenedi(phenyl isocyanate) | -4.131
Cc1nc2ccccn2c(=O)c1CCCl | 3-(2-Chloroethyl)-2-methyl-4H-pyrido(1,2-a)pyrimidin-4-one | -6.031
C=C[Si](C)(N(CC)C(C)=O)N(CC)C(C)=O | Acetamide, N,N'-(ethenylmethylsilylene)bis[N-ethyl- | 0.17
NCCCN(CCO)CCO | 2,2'-[(3-Aminopropyl)imino]diethanol | -5.084
CCOC(=O)[C@@H]1[C@@H](C)CCCC1(C)C (stereo in doubt) | Ethyl (1R,6S)-2,2,6-trimethylcyclohexanecarboxylate | -0.65
CCCCC(CC)COC(=O)OCC(CC)CCCC (stereo unspecified) | Bis(2-ethylhexyl) carbonate | -3.954
O=C(CCS)OCCOC(=O)CCS | 1,2-Ethanediyl 3'-mercaptopropionate | -1.743
O=C(O)c1ccccc1SSc1ccccc1C(=O)O | Benzoic acid, 2,2'-dithiobis- | -9
COC(=O)NCCC[Si](OC)(OC)OC | Methyl [3-(trimethoxysilyl)propyl]carbamate | -3.354
C/C=C/C(=O)C1CCC(C)(C)C=C1C (stereo partly drawn) | (E)-1-(2,4,4-Trimethyl-2-cyclohexen-1-yl)-2-buten-1-one | -1.353
CC=CCBr | 2-Butene, 1-bromo- | 1.905
COC(=O)c1cc(F)ccc1[N+](=O)[O-] | Methyl 5-fluoro-2-nitrobenzoate | -0.824
CCCCCCCCCCCCCCCC(=O)OC/C=C(C)/C=C/C=C(C)/C=C/C1=C(C)CCCC1(C)C | Retinol palmitate | -6.417
CC=CC(C)C | 4-Methyl-2-pentene | 2.316
CCCCCCCCC=CCCCCCCCC1=NC(CC)(CO)CO1 (stereo unspecified) | – | -5.029
O=C1CCCCO1 | Tetrahydro-2H-pyran-2-one | -1.092
COCc1ccc(COC)cc1 | 1,4-Bis(methoxymethyl)benzene | -1.973

Repeated from above, the 5 entries with the highest log vapor pressure:

SMILES | name | log vapor pressure (log10 mmHg)
CC=CC(C)C | 4-Methyl-2-pentene | 2.316
CC=CCBr | 2-Butene, 1-bromo- | 1.905
C=C[Si](C)(N(CC)C(C)=O)N(CC)C(C)=O | Acetamide, N,N'-(ethenylmethylsilylene)bis[N-ethyl- | 0.17
CCCCC(CC)C(=O)OCC (stereo unspecified) | Hexanoic acid, 2-ethyl-, ethyl ester | -0.133
CC(C)(C=O)CN1CCOCC1 | 2,2-Dimethyl-3-(morpholin-4-yl)propanal | -0.347

From the experimental data distributed with OPERA 2.9.